Among the data in ChEMBL document CHEMBL5257147 (ACS Med Chem Lett, 2023) are Ratio IC50 values, retold here.

The subject of this experiment is Epidermal growth factor receptor (Homo sapiens), P00533 [C797S,L858R]. Nature of the experiment: Potency index, ratio of osimertinib IC50 to test compound IC50 for inhibition of EGFR L858R/C797S mutant (unknown origin) using TK-substrate preincubated with enzyme for 30 mins followed by substrate and ATP addition for 20 mins by HTRF assay. As to conditions: time 50.0 min. In general terms: In TR-FRET formats the signal depends on donor and acceptor labels being close together.

In the case of `C=CC(=O)Nc1cc(Nc2ncc(C(=O)OC(C)C)c(-c3cn(C)c4ccccc34)n2)c(OC)cc1N(C)CCN(C)C` [MOBOCERTINIB], the Ratio IC50 is > 10.
